Values quoted from earlier work, collected in article PMC3780559 (MedChemComm, 2013).

Tested on: STAT3
Conditions: cited from earlier work

Cc1ccc(S(=O)(=O)OCC(=O)Nc2ccc(C(=O)O)c(O)c2)cc1 [Compound S3I-201]
STAT3:STAT3 complex formation and STAT3 DNA-binding and transcriptional activities: inhibited
